Laboratory results taken from publication PMC12435400, “Thymidine Phosphorylase Inhibitory Potential and Molecular Docking Studies of Secondary Metabolites Isolated From Fernandoa adenophylla (Wall. ex G. Don) Steenis” (Chemistry & Biodiversity, 2025).

Sequences of proteins named here, by UniProt entry; tags and fusion partners are left off. A change or cut given only in a name is not applied to a line headed by its entry.
UniProt P07650: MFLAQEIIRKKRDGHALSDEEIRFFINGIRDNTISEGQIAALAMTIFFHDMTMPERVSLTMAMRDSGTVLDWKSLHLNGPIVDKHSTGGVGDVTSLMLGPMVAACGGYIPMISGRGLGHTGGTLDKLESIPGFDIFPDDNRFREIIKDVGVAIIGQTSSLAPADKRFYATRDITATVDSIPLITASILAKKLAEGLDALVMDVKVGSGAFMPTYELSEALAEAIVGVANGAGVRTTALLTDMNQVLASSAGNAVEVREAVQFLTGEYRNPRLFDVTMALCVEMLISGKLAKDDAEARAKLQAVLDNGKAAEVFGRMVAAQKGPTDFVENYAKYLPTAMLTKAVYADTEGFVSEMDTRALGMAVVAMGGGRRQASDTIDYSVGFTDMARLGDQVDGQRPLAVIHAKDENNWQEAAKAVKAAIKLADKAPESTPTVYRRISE

What was measured:
[1] = target: T1, thymidine phosphorylase (EcTP) (Escherichia coli, UniProt P07650); test: biochemical
T1 construct: purchased
Experimental: Mechanism‐based studies were carried out on the selected compounds, that is, 1, 2, and 5.
(§1) In this study, we utilized commercially available recombinant EcTP enzyme as a model for TP inhibition assessment due to its structural similarities with mammalian TP enzymes. Spectrophotometric TP inhibition assays were conducted by incubating 0.058 U of EcTP enzyme with 500 µM of test compounds at 30°C for 10 min. Subsequently, 1.5 mM of thymidine substrate was added, and absorbance changes were monitored for 10 min at 290 nm using a microplate reader. […] Mechanistic studies involved incubating the TP enzyme with varying inhibitor concentrations and substrate concentrations ranging from 0.1875 to 1.5 µM. Enzyme activity was assessed by measuring absorbance changes for an additional 10 min. Triplicate experiments were conducted for mechanistic investigations to ensure the results' robustness.
Chemical reactions were examined using kinetic studies to determine their rates, mode of inhibition, and the variables influencing these characteristics. The kind and mechanism of inhibition of derivatives are ascertained here. Test compounds (0.5–500 µM) were incubated with TP (0.058 U/200 µL) for 10 min at 30°C in mechanistic studies. […] Thymidine cleavage was tracked at 290 nm for ten min straight using an ELISA plate reader (SpectraMax 384; Molecular Devices, San Jose, CA, USA).

[2] = target: T2, recombinant EcTP enzyme (thymidine phosphorylase) (Escherichia coli, UniProt P07650); test: biochemical
T2 construct: purchased
Experimental: as §1

Q: Which Ki [1] does the source give for O=c1[nH]c(=O)c2cc[nH]c2[nH]1 [7‐Deazaxanthine, reference compound] here?
A: The Ki was 17.3 ± 0.001 µM.

Q: And the IC50 [2]?
A: The IC50 was 15.1 ± 0.1 µM.
